Read-outs that look alike come from different tables or passages of the source.
Tests used:
TYRO3 = TYRO3 (Homo sapiens, UniProt Q06418)
[1] = system: pregnant rats and rabbits

The chains behind the UniProt entries cited, without tags or fusion partners. Residues count along the entry.
UniProt Q06418, 41-890: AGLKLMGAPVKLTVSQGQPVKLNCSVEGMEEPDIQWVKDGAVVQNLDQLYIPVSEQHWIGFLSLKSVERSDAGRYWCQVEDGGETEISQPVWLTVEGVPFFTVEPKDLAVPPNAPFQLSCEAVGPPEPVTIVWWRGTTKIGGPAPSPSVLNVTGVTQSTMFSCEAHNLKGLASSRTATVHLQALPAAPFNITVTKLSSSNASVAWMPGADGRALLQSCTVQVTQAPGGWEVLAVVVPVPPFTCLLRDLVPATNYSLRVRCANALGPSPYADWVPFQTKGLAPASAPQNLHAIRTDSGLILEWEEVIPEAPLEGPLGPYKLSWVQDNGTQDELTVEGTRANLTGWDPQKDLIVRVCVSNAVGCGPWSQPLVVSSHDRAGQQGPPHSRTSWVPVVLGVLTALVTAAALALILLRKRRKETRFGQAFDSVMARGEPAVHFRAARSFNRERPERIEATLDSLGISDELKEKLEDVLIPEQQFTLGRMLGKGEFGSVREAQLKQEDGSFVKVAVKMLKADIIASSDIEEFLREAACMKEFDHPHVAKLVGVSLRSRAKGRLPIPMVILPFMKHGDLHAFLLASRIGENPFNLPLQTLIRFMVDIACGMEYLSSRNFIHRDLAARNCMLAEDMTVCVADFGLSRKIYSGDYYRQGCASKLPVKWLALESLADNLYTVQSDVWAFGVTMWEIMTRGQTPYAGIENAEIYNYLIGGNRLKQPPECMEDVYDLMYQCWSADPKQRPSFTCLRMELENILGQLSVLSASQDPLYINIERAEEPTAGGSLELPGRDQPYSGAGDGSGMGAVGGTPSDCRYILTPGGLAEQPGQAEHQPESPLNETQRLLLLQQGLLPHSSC

Structure (SMILES): COc1cc2nccc(Oc3ccc(NC(=O)C4(C(=O)Nc5ccc(F)cc5)CC4)cc3)c2cc1OC [cabozantinib]
- Inhibition of tyrosine kinase activity (TYRO3): inhibits
- Embryo-fetal toxicity on administration to pregnant animals during organogenesis ([1]; in vivo): embryolethality at exposures below those occurring clinically at the recommended dose
- Embryo-fetal toxicity on administration to pregnant animals during organogenesis ([1]; rats and rabbits): embryofetal lethality and structural anomalies at exposures that were below those occurring clinically at the recommended dose

— patent US11141413B2, “Method of treating renal cell carcinoma using N-(4-(6,7-dimethoxyquinolin-4-yloxy)phenyl)-N′-(4-fluorophenyl)cyclopropane-1,1-dicarboxamide, (2S)-hydroxybutanedioate” (Exelixis, Inc., priority 2016, dated 2021)
